# High-throughput results as filed in PubChem BioAssay.
# Chronic BCR inh: chronic active BCR signaling inhibition; AID 493014; Potency, µM (top dose mostly 46.1 µM), for inactives: at the highest dose activity change, negative = inhibition, usual class: inhibitors; 340,000 tested, 0.05% active; ABC-DLBCL IkBa-CBG/CBR reporter, luminescence ratio, 4 h; active = well fitted inhibition curve with a large enough effect in the signal ratio, with a control signal flat, not every such curve was filed as active; inconclusive = small, poorly fitted or top-dose-only effect, or effect the other way, or a change in a side signal; the % refers to the signal ratio;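 also: potency is read from the fitted curve at half-maximal effect; plate controls were basal doxycycline-induced cells for no effect and cells given 10 µM MG132 for full effect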
#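 Doxycycline induced both beetle luciferases in TMD8 lymphoma cells; IKK-driven degradation limits the IkappaBalpha-fused green signal, while red luminescence normalises for cell number and nonspecific effects. Compounds tested up to 46 uM, 4 hrs.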
# miR-21 reporter: miR-21 reporter, rising signal | HeLa miR-21 FLuc reporter, luciferase, 48 h | Potency, µM (top dose mostly 38.3 µM), inactives show at the top dose reporter change, positive = more light | 340,000 tested, under 10 active | AID 2288; active = well fitted rising curve with a large enough effect; inconclusive = small, poorly fitted or top-dose-only effect; inactive = no such curve, though single readings can be large or run the other way;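 further: % of control where 0% means no effect; miR-21 action dims this reporter so a rising signal means less miR-21 action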
#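 Luminescence from a firefly luciferase reporter carrying a miR-21 binding site downstream, stably expressed under a CMV promoter in HeLa cells that make miR-21 endogenously, reports miRNA modulation after 48 h compound exposure up to approximately 40uM final.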
# PINK1 modulator: changes PINK1 expression | PINK1 immunofluorescence, high-content cytometry, 24 h | Potency, µM (highest dose often 76.6 µM), without a hit: at the highest dose activation (PINK1 increase), usual class: activators | 410,000 tested, 0.2% active; active = well fitted activation curve with a large enough effect; inconclusive = small, poorly fitted or top-dose-only effect; cell line not stated here; also: potency is read from the fitted curve at half-maximal effect; % of control where 0% means no effect; nearly all actives have a fitted effect of over 65% in size
#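 Readout is PINK1 immunofluorescence, quantified alongside mitochondrial, cell and nuclear markers by laser-scanning microplate cytometry. Cells from a stable line were exposed to compound titrations (5 concentrations) for 24 hours, with CCCP controls.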
# Pin1 inhibitor: blocks the human prolyl isomerase Pin1. 390,000 tested, 0.009% active. Potency, µM (titrated, usually from 115 µM), for the others: at the highest dose activity, negative = inhibition, actives largely listed as inhibitors. AID 504891. Q13526. Pin1 FP peptide displacement, HiFluor488, 10 min; active = well fitted inhibition curve with a large enough effect in the polarisation, with a control signal flat, not every such curve was filed as active; inconclusive = small, poorly fitted or top-dose-only effect, or effect the other way, or a change in a side signal; inactive = no such curve, though single readings can be large or run the other way; the % refers to the polarisation; also: potency is read from the fitted curve at half-maximal effect; % is scaled to controls: 0 for no effect and ±100 for the full control effect
# PKM2 act: increases activity of human pyruvate kinase M2; P14618; purified PKM2, Kinase-Glo ATP luminescence, activation; response scale: 0% is enzyme alone, no compound; Potency, µM (titrated, usually from 57.5 µM), for the others: at the top dose activation, usual class: activators; 260,000 tested, 0.34% active; also: potency is read from the fitted curve at half-maximal effect; % is scaled to controls: 0 for no effect and ±100 for the full control effect; nearly all actives have a fitted effect of over 55% in size
#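 hPK-M2, >95% pure; 0.1 mM ADP / 0.5 mM PEP final; imidazole pH7.2 buffer w/ 7 mM MgCl2, 50 mM KCl; 1 h RT; Kinase-Glo lum. Intermediate enzyme activity for dual inhibitor/activator qHTS.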
# B2AR arrestin: agonists driving beta-arrestin recruitment to human beta2-adrenergic receptor; beta-arrestin recruitment to beta2AR, cell-based reporter; P07550; Potency, µM (titrated, usually from 46.1 µM), for the others: at the top dose activation, hits mostly activators; 330,000 tested, 0.02% active;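 also: potency is read from the fitted curve at half-maximal effect; 0% = DMSO controls and full agonism = EC100 isoproterenol or metaproterenol; nearly all actives have a fitted effect of over 65% in size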
# The depositor's hits bear a star; ? = inconclusive; · = no result; [ ] = remark or other dose. Rows were chosen to be rich in hits. Some 0.46% of all compounds tested hit in one or more screens of this group. Unless noted, calls follow the shape of the dose curve; as a rule, active = well fitted curve in the direction sought with a large enough effect; inconclusive = small, poorly fitted or top-dose-only effect, or another doubt; inactive = no such curve, though single readings can be large; an effect the other way counts as inactive or inconclusive.
# Short keys – A = Chronic BCR inh; B = miR-21 reporter; C = PINK1 modulator; D = Pin1 inhibitor; E = PKM2 act; F = B2AR arrestin
> FC(F)(F)c1cnc(NNC(=S)Nc2ccc(Cl)cc2)c(Cl)c1
  A: 7%; B: ?; C: 11µM*; D: -2%; E: -9%; F: 0%
> Cc1ccc(NC(=S)NNc2ncc(C(F)(F)F)cc2Cl)cc1
  A: 9%; B: ?; C: 32µM*; D: 2%; E: -17%; F: 0%
> FC(F)(F)c1cccc(NC(=S)NNC(=S)Nc2ccc(Cl)cc2)c1
  A: ?; B: ?; C: ·; D: ·; E: -8%; F: -1%
> COc1ccc(-c2cnc(N3CCC(C(N)=O)CC3)s2)cc1OC
  A: ·; B: ·; C: ·; D: -3%; E: ·; F: ·
> CC(=O)N1CCCc2cc(S(=O)(=O)Nc3ccc(C)c(C)c3)ccc21
  A: ·; B: ·; C: ·; D: 3%; E: ·; F: ·
> Cc1cccc2c1NC1(CCCC1)CC2C (configuration not stated)
  A: 8%; B: 5%; C: 45µM*; D: -1%; E: -5%; F: 0%
> CC1CC2(CCCC2)Nc2ccc(F)cc21 (configuration not stated)
  A: 1%; B: -1%; C: 10%; D: -7%; E: ·; F: -1%
> Cc1nc(SCc2ccccc2)c2ccsc2n1
  A: 0%; B: -2%; C: ?; D: 5%; E: 16µM*; F: 0%
> Cc1csc(SCC(=O)Nc2ccc(S(=O)(=O)N3CCCC3)cc2)n1
  A: 0%; B: -9%; C: 1%[38.3 µM]; D: -2%; E: 20µM*; F: -1%
> Cc1ccc(NC(=S)NNC(=O)c2cccc([N+](=O)[O-])c2)cc1Cl
  A: ?; B: -32%; C: 35µM*; D: ?; E: -10%; F: 0%
> O=C(NNC(=S)Nc1ccc(F)cc1)c1cccc([N+](=O)[O-])c1
  A: ?; B: -24%; C: -1%; D: -10%; E: -8%; F: 4%
> O=C(c1ccco1)N1CCN(c2nc(-c3ccc(Br)cc3)cs2)CC1
  A: ·; B: ·; C: ·; D: 2%; E: ·; F: ·
> CNS(=O)(=O)c1ccc2c(c1)oc(=O)c1cc(S(=O)(=O)NC)ccc12
  A: -5%; B: 4%; C: 0%; D: -6%; E: 1.6µM*; F: 0%
> CC(C)(CO)NS(=O)(=O)c1ccc2c(c1)oc(=O)c1cc(S(=O)(=O)NC(C)(C)CO)ccc12
  A: ·; B: -2%; C: 3%; D: 5%; E: 2%; F: ·
> O=c1oc2cc(S(=O)(=O)NCCCO)ccc2c2ccc(S(=O)(=O)NCCCO)cc12
  A: -4%; B: -1%; C: 0%; D: -1%; E: 14µM*; F: 0%

# Full records, looked up by structure:
# Results for Cc1ccc(NC(=S)NNc2ncc(C(F)(F)F)cc2Cl)cc1 → Chronic BCR inh = 9%; miR-21 reporter = ?; PINK1 modulator = 32µM*; Pin1 inhibitor = 2%; PKM2 act = -17%; B2AR arrestin = 0%
# Results for CNS(=O)(=O)c1ccc2c(c1)oc(=O)c1cc(S(=O)(=O)NC)ccc12 → Chronic BCR inh = -5%; miR-21 reporter = 4%; PINK1 modulator = 0%; Pin1 inhibitor = -6%; PKM2 act = 1.6µM*; B2AR arrestin = 0%

# Going on with the list:
# Short keys – A = Chronic BCR inh; B = miR-21 reporter; C = PINK1 modulator; D = Pin1 inhibitor; E = PKM2 act; F = B2AR arrestin
> CCc1nc2oc3cc(OC)ccc3c(=O)c2c(=O)n1Cc1ccco1
  A: ?; B: 0%; C: 3%; D: ?; E: 25µM*; F: 0%
> COc1ccccc1NS(=O)(=O)c1ccc2c(c1)CCC(=O)N2
  A: ·; B: ·; C: ·; D: -6%; E: ·; F: ·
> O=C(Nc1ccc2oc(-c3ccccc3)nc2c1)c1ccc2c(c1)OCCO2
  A: 4%; B: -1%; C: 13µM*; D: 0%; E: -3%; F: 0%
> CO[C@H]1[C@H](NC(=O)c2cccs2)c2ccccc2C12CCN(Cc1cccn1-c1cccnc1)CC2
  A: ·; B: ·; C: 0%; D: ·; E: ·; F: ·
> O=C(Nc1ccccc1)c1cccc(C(F)(F)F)c1
  A: ?; B: -27%; C: 4%; D: 0%; E: -6%; F: -1%
> Cc1c(C(=O)Nc2ccccc2)c2ccc(C(F)(F)F)cc2n1O
  A: ·; B: ·; C: 45µM*; D: -5%; E: ·; F: ·
> Cc1cc2c(s1)c1cnn(Cc3ccccc3C)c(=O)c1n2C
  A: ·; B: ·; C: ·; D: -2%; E: ·; F: ·
> C[n+]1c(-c2ccccc2)cc2c(=Cc3ccc([N+](=O)[O-])cc3)c3ccccc3n21
  A: ·; B: ·; C: 4.5µM*; D: -5%; E: ·; F: ·
> CCn1c(SCC(=O)Nc2cccc(C)c2)nc2nc3c(cc2c1=O)COC(C)(C)C3
  A: ?; B: 6%; C: 2%; D: -4%; E: 14µM*; F: -1%
> N#C/C(=C(/O)c1ccc2c(c1)OCO2)c1nc2cc(C(F)(F)F)ccc2s1
  A: ?; B: -4%; C: 14µM*; D: 6%; E: 3%; F: 0%
> Cc1c(P(=S)(c2ccccc2)c2ccccc2)[n+]2ccccc2n1Cc1ccccc1
  A: ·; B: ·; C: ·; D: 1%; E: ·; F: ·
> CC(=O)Nc1ccc(OCc2cccc(C3Nc4ccccc4C(=O)N3Cc3ccco3)c2)cc1 (configuration not stated)
  A: ·; B: ·; C: ·; D: 23%; E: ·; F: ·
> CCn1c(=O)cc(SCC(=O)N2CCN(c3ccccn3)CC2)c2ccccc21
  A: 16µM*; B: 4%; C: 2%; D: 4%; E: 0%; F: 0%
> CCOC(=O)/C(=N\Nc1ccc(Cl)cc1)c1csc(Nc2ccccc2)n1
  A: ?; B: -5%; C: 3%; D: 20%; E: 12%; F: 0%
> CCOC(=O)/C(=N/Nc1ccccc1)c1csc(Nc2ccccc2)n1
  A: ?; B: -9%; C: 11µM*; D: 1%; E: 3%; F: -2%

# Continued (two carried over from the part before).
# Short keys – A = Chronic BCR inh; B = miR-21 reporter; C = PINK1 modulator; D = Pin1 inhibitor; E = PKM2 act; F = B2AR arrestin
> CCOC(=O)/C(=N\Nc1ccc(Cl)cc1)c1csc(Nc2ccccc2)n1
  A: ?; B: -5%; C: 3%; D: 20%; E: 12%; F: 0%
> CCOC(=O)/C(=N/Nc1ccccc1)c1csc(Nc2ccccc2)n1
  A: ?; B: -9%; C: 11µM*; D: 1%; E: 3%; F: -2%
> CC(=O)c1ccc(F)c(-c2cc(C)cc3c2OC(CNC(=O)c2csc(C)n2)C3)c1 (configuration not stated)
  A: ·; B: ·; C: 0%; D: ·; E: ·; F: ·
> Cn1c(=O)n(C)c2cc(S(=O)(=O)NCc3ccccc3)ccc21
  A: -1%; B: 2%; C: 3%; D: 1%; E: 18µM*; F: -1%
> Cn1c(=O)n(C)c2cc(S(=O)(=O)NCc3ccco3)ccc21
  A: -2%; B: 4%; C: 0%; D: -4%; E: ?; F: 0%
> O=[N+]([O-])c1ccc(NCCNS(=O)(=O)c2ccccc2)c(C(F)(F)F)c1
  A: 9%; B: 9%; C: 7%; D: 0%; E: 28µM*; F: 0%
> Cc1ccc(S(=O)(=O)NCCNc2ccc([N+](=O)[O-])cc2C(F)(F)F)cc1
  A: ?; B: 17%; C: 2%; D: 8%; E: ?; F: 0%
> Cn1cc(/C=C/c2cc[n+](C)cc2)c2cc(F)ccc21
  A: 6%; B: ?; C: 11µM*; D: ?; E: ·; F: -1%
> Cn1cc(/C=C/c2cc[n+](C)cc2)c2cc(Cl)ccc21
  A: ?; B: ?; C: ?; D: ?; E: ·; F: 0%
> C[n+]1ccc(/C=C/c2c[nH]c3ccc(F)cc23)cc1
  A: 12%; B: 26%; C: 16µM*; D: ?; E: ·; F: 0%
> CCNS(=O)(=O)c1ccc(NC(=O)c2ccc(Cn3cc([N+](=O)[O-])cn3)o2)cc1
  A: 3%; B: -4%; C: 2%; D: 3%; E: 18µM*; F: 0%
> COc1ccc(C2Nc3ccccc3C(=O)N2Cc2ccccc2)cc1COc1ccc(C)cc1 (configuration not stated)
  A: ·; B: ·; C: ·; D: 8%; E: ·; F: ·
